Laboratory results as given in patent US5180742A, “Quinone derivatives, their production and use” (Takeda Chemical Industries, Ltd., priority 1984, dated 1993).

Tested on: mice of ICR breed
Assay type: in vivo
Conditions: 1000 mg/kg oral, male ICR mice, 7 days
Excerpt: Acute Toxicity Test in Mice (Acute Toxicity)
1000 Milligrams per kilogram of each set specimen was applied orally to groups of 5 five-weeks old male mice of ICR breed, and a number of dead animals observed for the 7-days period was counted.

SMILES: CC1=C(C)C(=O)C(C(CCCCCC(=O)O)c2ccccc2)=C(C)C1=O (stereo not shown) [Compound No. 50, 7-(3,5,6-trimethyl-1,4-benzoquinon-2-yl)-7-phenylheptanoic acid]
- Acute toxicity (number of dead animals/number of animals used): 0/5
